Reference: patent US11116757B2 (priority 2015, dated 2021)

Sequences of proteins named here, by UniProt entry; tags and fusion partners are left off. Residues count along the entry.
UniProt Q96GG9, 60-248 limits assumed: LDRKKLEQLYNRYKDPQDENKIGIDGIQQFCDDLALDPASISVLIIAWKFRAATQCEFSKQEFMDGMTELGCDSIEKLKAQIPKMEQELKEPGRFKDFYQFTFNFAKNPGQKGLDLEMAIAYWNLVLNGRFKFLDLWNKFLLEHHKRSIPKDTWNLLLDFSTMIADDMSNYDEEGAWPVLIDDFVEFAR

Each substance was assayed against DCN1-UBC12 interaction (Homo sapiens (Human), UniProt Q96GG9). Conditions: read-out: TR-FRET IC50.
Format: binding

| Substance | IC50 [nM] |
| --- | --- |
| 1-Benzyl-1-(Piperidin-4-yl)-3-(3-(Trifluoromethyl)Phenyl)Urea [A264] | > 65400 |
| 1-Benzyl-1-(1-Butylpiperidin-4-yl)-3-(3-(Trifluoromethyl)Phenyl)Urea [A37] | 207 |
| 1-Benzyl-3-(3-(Trifluoromethyl)Phenyl)-1-(1-(3,3,3-Trifluoropropyl)Piperidin-4-yl)Urea [A76] | 757 |
| 1-Benzyl-1-(1-(Cyclopentylmethyl)Piperidin-4-yl)-3-(3-(Trifluoromethyl)Phenyl)Urea [A150] | 5400 |
